## Antibody variant affinities, Ab-14 heavy chain, assay B

From the AlphaSeq antibody data of Li et al. 2023 (doi:10.1038/s41467-023-39022-2), copy in the FLAb collection.

Binding partner: SARS-CoV-2 spike HR2 peptide, sequence PDVDLGDISGINAS.

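The starting antibody came from a phage panning campaign against this peptide. This is the validation round: designs drawn from the data on random variants, tested in the same kind of assay. Several design methods are mixed in this list. The scFvs were displayed on barcoded MATa yeast, the peptide on MATalpha yeast. After mating in shaken culture at 30 °C for 16 h, diploids were selected and their barcode pairs sequenced. A regression on co-assayed BCL2-family reference pairs converts the normalised counts of each replicate to an apparent Kd. The assay was run in six technical replicates.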

Ab-14 is the parent antibody, in scFv form: VH, then the linker GGGGSGGGGSGGGGS, then VL. The light chain is unchanged in all variants.
VH: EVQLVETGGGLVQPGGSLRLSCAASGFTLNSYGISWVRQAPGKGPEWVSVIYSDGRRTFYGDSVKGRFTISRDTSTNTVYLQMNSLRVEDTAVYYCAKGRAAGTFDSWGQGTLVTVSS
VL: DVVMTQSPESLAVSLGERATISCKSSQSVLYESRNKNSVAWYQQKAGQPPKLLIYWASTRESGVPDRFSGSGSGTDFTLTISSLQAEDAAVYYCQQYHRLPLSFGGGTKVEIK

Each variant is given by its three heavy chain CDRs, as the data file delimits them; those of the parent are GFTLNSYGIS, VIYSDGRRTFYGDSVK, GRAAGTFDS. Values are log10 of the apparent Kd in nM; lower means stronger binding. Replicates are averaged; those with no signal do not enter the mean. Where no diploid with the target was found in any replicate, the entry reads "nd": below detection, most likely a poor binder, though not proof of it.

log10 Kd (nM), mean | seen in | CDR-H1 | CDR-H2 | CDR-H3
nd | 0 of 6 | EFNLNEFGIS | VIYADGKRTAYVPNVK | GHLGGHFDM
-1.12 | 6 of 6 | GFDLNEYGIS | VIYADGVRKAYVDSVK | GNNAGTFDV
-0.14 | 6 of 6 | GFDLDEYGIS | VIYADGSRTAYADSVK | GNQAGTFDI
nd | 0 of 6 | GFTLESYGIS | VIYADGRRTFYGDSVK | GRAAGTFLS
nd | 0 of 6 | GFDIEEYGIS | VIYADGVRTMYADDVK | GNSKTYSLT
-0.30 | 6 of 6 | GFDLNEYGIS | VIYADGMRTAYTDSVK | GEVAGTFDI
-0.41 | 6 of 6 | GFDLDEYGIS | VIYADGQRTFYADSVK | GELAGTFDS
-0.69 | 6 of 6 | GFDLDEYGIS | VIYADGRRTAYANSVK | GNVAGTFDV
-0.32 | 6 of 6 | GFDLNEYGIS | VIYADGKRTAYTDSVK | GANAGTFDQ
3.33 | 2 of 6 | GFDLNEYGIS | VIYSDGRRTFYGDSVK | GRAAGHFDS
-0.49 | 6 of 6 | GFDLNEYGIS | VIYADGMRTFYSDSVK | GNAAGTFDV
-0.18 | 5 of 6 | GFDLDEYGIS | VIYADGVRTAYADSVK | GENAGTFDI
1.81 | 5 of 6 | GFALNSYGIS | VIYSDGMRTFYGDSVK | GRAAGTFDS
nd | 0 of 6 | GFTLDSYGIS | VIYSDGRRCFYDDSVK | GSGAGTFDS
nd | 0 of 6 | GFTLNSYGIS | VIYSDGRRTFYGDSVK | GRAAGSFDS
0.38 | 6 of 6 | GFELNSYGIS | VIYSDGRRTFYEDSVK | GRTAGTFDS
3.65 | 1 of 6 | GFQINEYGIS | VIYADGMRTGYADDVK | GMKDVNIFD
2.33 | 5 of 6 | GFSLNSYGIS | VIYSDGRRTAYGDSVK | GRAAGTFNS
nd | 0 of 6 | GKSLNTYGIS | VIYSDGRRTAYGDSVK | GRAAGTFDS
0.14 | 3 of 6 | GFTLNEYGIS | VIYSDGRRTFYQDSVK | GRTAGTFDS
-0.11 | 6 of 6 | GFDLNEYGIS | VIYADGVRTAYADSVK | GQTAGTFDV
1.19 | 3 of 6 | GFTLNSYGIS | VIYSDGRRTFYGDSVK | GRMAGTFDL
0.48 | 6 of 6 | GFNLNSYGIS | VIYSDGRRTFYADSVK | GQAAGTFDT
1.14 | 2 of 6 | GFDLNEYGIS | VIYADGQRTAYADSVK | GENAGTFVQ
0.71 | 6 of 6 | GFSLNSYGIS | VIYSDGRRTFYHDSVK | GKEAGTFDS
nd | 0 of 6 | GFTLKSYGIS | VIYSDGRRTFYDDSVK | GKLAGTFDS
0.43 | 6 of 6 | GFNLNSYGIS | VIYSDGRRTFYADSVK | GRQAGTFDA
1.70 | 2 of 6 | GFQLNMYGIS | VIYSDGRRTVYGDSVK | GRAAGTFDS
1.48 | 5 of 6 | GENLNSYGIS | VIYSDGRRTFYGDSVK | GREAGTFDS
-0.19 | 6 of 6 | GFDLNSYGIS | VIYSDGMRTFYGDSVK | GREAGTFDS
1.51 | 3 of 6 | GFSLNSYGIS | VIYSDGRRTFYLDSVK | GRAAGTFDS
0.46 | 6 of 6 | GFDLNSYGIS | VIYSDGRRTFYGDSVK | GQTAGTFDR
3.09 | 2 of 6 | GFWRNSYGIS | VIYSDGRRTFYSDSVK | GRAVGTPDS
-0.47 | 6 of 6 | GFDLNEYGIS | VIYADGKRTAYTDSVK | GNVAGTFDT
nd | 0 of 6 | QFSLNSYGIS | VIYSDGRRTFYSDDVK | GRAAGFFDS
0.19 | 6 of 6 | KFKLNSYGIS | VIYSDGRRTFYADSVK | GRTAGTFDS
2.06 | 3 of 6 | GFNLNSYGIS | VIYSDGRRTFYGDRVK | GQIAGTFDS
-0.24 | 6 of 6 | GFTLNSYGIS | VIYSDGRRTFYSDSVK | GQAAGTFDS
-0.19 | 6 of 6 | GFDLDEYGIS | VIYADGMRTAYVDSVK | GNVAGTFDL
0.28 | 6 of 6 | GFNLNEYGIS | VIYADGRRTFYADSVK | GEAAGTFDA
-0.72 | 6 of 6 | GFDLNEYGIS | VIYADGMRTAYANDVK | GNNAGTFDV
nd | 0 of 6 | GFDLNEYGIS | VIYADGIRTAYSDQVK | GMDGIVILF
nd | 0 of 6 | GFTLNSYGIS | VIYSDGRRTFYGDSVK | GRAAGTFKM
-0.59 | 6 of 6 | GFTLNEYGIS | VIYSDGRRTFYGDSVK | GRAAVTFDN
nd | 0 of 6 | GFALNEYGIS | VIYADGFRRSYQDKVK | GHNAGEFSV
nd | 0 of 6 | GFNLNSYGIS | VIYSDGRRTFYGDSVK | GQAAGTFDL
nd | 0 of 6 | GFTLNSYGIS | VIYSDGRRTFYGDSVK | GRWAGTADC
0.28 | 6 of 6 | GFDLNSYGIS | VIYSDGRRTFYADAVK | GRQAGTFDS
0.75 | 6 of 6 | GFTLNSYGIS | VIYSDGRRTFYSDSVK | GRMAGTFDS

Excerpt, the final 7 entries:

CDR-H1 | CDR-H2 | CDR-H3 | log10 Kd (nM), mean | seen in
GFTLNSYGIS | VIYSDGRRTFYGDSVK | GRAAGTFKM | nd | 0 of 6
GFTLNEYGIS | VIYSDGRRTFYGDSVK | GRAAVTFDN | -0.59 | 6 of 6
GFALNEYGIS | VIYADGFRRSYQDKVK | GHNAGEFSV | nd | 0 of 6
GFNLNSYGIS | VIYSDGRRTFYGDSVK | GQAAGTFDL | nd | 0 of 6
GFTLNSYGIS | VIYSDGRRTFYGDSVK | GRWAGTADC | nd | 0 of 6
GFDLNSYGIS | VIYSDGRRTFYADAVK | GRQAGTFDS | 0.28 | 6 of 6
GFTLNSYGIS | VIYSDGRRTFYSDSVK | GRMAGTFDS | 0.75 | 6 of 6

The authors' rule: three or more of the six replicates give a measured affinity, fewer mean a poor binder. Background: pairings of all heavy chain designs with three empty control strains gave a value in 1% of cases (median 2.08, 5th percentile 0.84). Values in that range, when seen in few replicates, are hard to tell from nonspecific mating. Values of this round are not directly comparable with the first-round values of the same sequences. The parent sequence was in this pool as ten entries: three were never detected, three once, and four in most replicates, with averages from 0.34 to 2.37.